# Compounds with a hit are over-represented: about 0.94% of the library has one in this group of screens.
# Granule exo inh: blocks lytic granule exocytosis | TALL-104 LAMP-1 surface exposure, flow cytometry; cells stimulated with thapsigargin and PMA | inhibition, % at 10 µM | 360,000 tested, 0.66% active | AID 651702;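 active means inhibition above about 55%, limit read from the data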
# ABCB6 inh MLPCN: human ABCB6 transporter inhibition; AID 602162; fluorescence ratio to DMSO, % at 10 µM; K562-ABCB6 porphyrin accumulation, flow cytometry, 1 h; stronger effect = lower value; Q9NP58; 360,000 tested, 0.19% active;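 active means fluorescence ratio to DMSO below 75%, the collection mean minus 3 SD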;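 further: signal is porphyrin accumulated inside mitochondria; 100% equals median channel fluorescence of DMSO control wells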
# PKA-R1A activ: PKA-R1A complex activation. P00514+P68181. PKA-R1A dissociation, Cy5-IP20 fluorescence polarization; scaled: DMSO 0%, 113 µM cGMP 100%. activation, % at 11.4 µM. 340,000 tested, 0.083% active. AID 504707;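 active means percent activation above the mean of all tested compounds plus 3 SD, cut at about 19% in these data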;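 further: higher means more PKAc released from R1A so a rise in polarization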
# Yeast UUG start: yeast start codon fidelity modulation | S. cerevisiae UUG-firefly luciferase reporter, luminescence/redox ratio | activity score, % at 18.7 µM | hit rate 0.13% among 350,000 | AID 602363;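 active means replicate mean at a twofold rise or more, about +100% in these data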;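 further: firefly luciferase made from a UUG start codon reports start codon fidelity; reporter light over untreated wells divided by growth signal over untreated wells; some hits fall short of that in this replicate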
# p-CIP stab down: compounds decreasing mouse p/CIP protein stability; Q05BA5; F442A p/CIP-EGFP cells, EGFP fluorescence, 16 h; decrease of EGFP signal, % at 10 µM; 290,000 tested, 0.01% active; AID 1984;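 active means EGFP signal decrease of at least 30% at 10 µM or well 3 SD below plate mean, unless failing retest; inactive means the rest, including hits failing retest or dose response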
# PKA-R2B act: activators of human PKA-R2B complex; P22694+P31323; PKA-R2B holoenzyme dissociation, Cy5-IP20 fluorescence polarization; R2B truncated from residue 108, S112A mutant; 0% DMSO only, 100% 113 µM cGMP; activation, % at 11.4 µM; 340,000 tested, 0.079% active; AID 504700;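 active means activation above a cutoff set at the mean over all compounds plus 3 SD, cut at about 18% in these data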;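 further: higher means more holoenzyme dissociation and a rise in polarization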
# ABCB6 inh CP1: inhibitors of human ABC transporter ABCB6; AID 602430; shares compounds with ABCB6 inh MLPCN; K562-ABCB6 porphyrin accumulation, flow cytometry, 1 h; stronger effect = lower value; ratio response (% of DMSO), % at 10 µM; 700 tested, under 10 active;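 active means repeat-averaged ratio response below 75% of DMSO, the collection mean minus 3 SD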;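 further: median porphyrin fluorescence at 575 nm with 488 nm excitation from mitochondria; lower ratio means less porphyrin signal so ABCB6 inhibition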
# * marks the source's active call; other numbers are inactive results; / = no result.
smiles	Granule exo inh	ABCB6 inh MLPCN	PKA-R1A activ	Yeast UUG start	p-CIP stab down	PKA-R2B act	ABCB6 inh CP1
CC1CC(C)CN(C(=O)CCc2nnc3ccc(N4CCCCC4)nn23)C1 (stereo not drawn)	-5	97	5	-18	-4	3	98
CC1CCN(c2ccc3nnc(CCC(=O)NCCCOC(C)C)n3n2)CC1	-4	99	-3	-4	7	3	99
CCOC(=O)C1CCN(C(=O)CCc2nnc3ccc(N4CCC(C)CC4)nn23)CC1	1	99	6	-21	0	6	100
COc1ccc(N2CCN(C(=O)CCc3nnc4ccc(N5CCC(C)CC5)nn34)CC2)cc1	-13	89	-19	-14	2	-6	/
CCOC(=O)CNC(=O)CCc1nnc2ccc(N3CCC(C)CC3)nn12	-8	98	10	-18	-16	6	99
N#C[C@H]1[C@@H](c2ccc(-c3ccncc3)cc2)[C@@H](CO)N1C(=O)C1CCCCC1	/	/	/	-10	/	/	/
CN1CCN(C(=O)C[C@H]2C[C@H]3c4cc(NC(=O)NC5CCCC5)ccc4O[C@H]3[C@H](CO)O2)CC1	/	/	/	-9	/	/	/
CCCNC(=O)CCc1nnc2ccc(N3CCC(C)CC3)nn12	-12	98	-1	-2	-7	-2	95
COc1ccccc1C(=O)Nc1cc(C)on1	1	97	-6	9	-3	-1	/
COc1ccccc1C(=O)Nc1cc(-c2ccc(C)cc2)no1	33	69*	-11	5	2	-3	97
Cc1cccn2c(=O)c3cc(S(=O)(=O)c4ccccc4)c(=N)n(Cc4ccco4)c3nc12	4	66*	2	-10	3	8	104
Cc1cccn2c(=O)c3cc(S(=O)(=O)c4ccc(F)cc4)c(=N)n(Cc4ccco4)c3nc12	4	95	-6	-11	4	-8	/
COc1ccc(S(=O)(=O)N(C)C[C@@H]2OCCCC[C@H](C)Oc3ccc(N(C)C)cc3C(=O)N([C@H](C)CO)C[C@@H]2C)cc1	/	/	/	92	/	/	/
CC(NC(=O)CN1CCc2ccccc21)c1ccccc1 (stereo not drawn)	1	59*	-2	9	-6	-6	103
C[C@@H]1CN([C@@H](C)CO)C(=O)c2cc(NC(=O)Nc3ccc(C(F)(F)F)cc3)ccc2O[C@@H]1CN(C)C(=O)Nc1ccc(F)cc1	/	/	/	-9	/	/	/
CCOc1cc(C(=O)NCc2ccc(-c3nc4ccccc4o3)cc2)cc(OCC)c1OCC	-1	70*	-2	-15	-8	5	98
COc1ccc(C(=O)NC(=S)NCc2ccc(-c3nc4ccccc4o3)cc2)cc1OC	-1	93	6	/	-6	9	/
C[C@@H]1CCCCO[C@@H](CN(C)Cc2ccc3c(c2)OCO3)[C@H](C)CN([C@@H](C)CO)C(=O)c2cc(NS(=O)(=O)c3cccs3)ccc2O1	/	/	/	29	/	/	/
COC(CNC(=O)c1cnn2c(C)c(Cc3ccccc3)c(C)nc12)OC	-2	92	1	/	14	-3	96
Cc1cc(C)c(Cc2c(C)nc3c(C(=O)NCc4ccco4)cnn3c2C)c(C)c1	17	95	3	/	0	-3	99

# Looked up by compound from above, 3 records:
smiles	Granule exo inh	ABCB6 inh MLPCN	PKA-R1A activ	Yeast UUG start	p-CIP stab down	PKA-R2B act	ABCB6 inh CP1
COc1ccccc1C(=O)Nc1cc(C)on1	1	97	-6	9	-3	-1	/
C[C@@H]1CCCCO[C@@H](CN(C)Cc2ccc3c(c2)OCO3)[C@H](C)CN([C@@H](C)CO)C(=O)c2cc(NS(=O)(=O)c3cccs3)ccc2O1	/	/	/	29	/	/	/
COC(CNC(=O)c1cnn2c(C)c(Cc3ccccc3)c(C)nc12)OC	-2	92	1	/	14	-3	96

# More compounds:
smiles	Granule exo inh	ABCB6 inh MLPCN	PKA-R1A activ	Yeast UUG start	p-CIP stab down	PKA-R2B act	ABCB6 inh CP1
COC(CNC(=O)Cc1c(C)nc2c(-c3ccccc3)c(C)nn2c1C)OC	0	92	6	/	-3	-8	/
C[C@H]1CN([C@@H](C)CO)S(=O)(=O)c2ccc(C#Cc3ccccc3)cc2O[C@H]1CN(C)CC1CC1	/	/	/	18	/	/	/
COc1ccc(N(C(=O)C(C)C)S(=O)(=O)c2ccc(Cl)cc2)cc1	4	48*	5	0	-6	-5	98
COc1ccc(N(C(=O)c2ccncc2)S(=O)(=O)c2ccc(Cl)cc2)cc1	1	98	-2	-20	-13	1	/
CNC(=O)C[C@@H]1CC[C@H]2[C@@H](COc3ccc(NC(=O)Nc4ccc(F)cc4)cc3C(=O)N2C)O1	/	/	/	10	/	/	/

# Bioassay records: PubChem, several laboratories
